Binding of CDR-mutated scFvs to a peptide of the spike HR2 region

Antigen: PDVDLGDISGINAS, a 14-residue peptide of the SARS-CoV-2 spike HR2 region.

Parent scFv Ab-14: VH joined to VL by a 15-residue (Gly4Ser)3 linker. Changes lie in the heavy chain CDRs alone.
VH: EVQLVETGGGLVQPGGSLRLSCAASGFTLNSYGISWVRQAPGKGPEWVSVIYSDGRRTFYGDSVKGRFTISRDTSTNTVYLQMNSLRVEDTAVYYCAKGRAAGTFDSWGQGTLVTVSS
VL: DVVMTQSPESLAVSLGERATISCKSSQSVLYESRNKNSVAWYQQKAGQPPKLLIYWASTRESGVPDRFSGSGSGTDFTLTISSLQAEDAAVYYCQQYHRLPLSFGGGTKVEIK

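Phage display of a naive human antibody library on the peptide gave the parent. The library (AAYL49) carries one to three amino acid substitutions per variant, with no insertions or deletions. AlphaSeq pools MATa yeast showing the antibodies with MATalpha yeast showing the peptide. After mating in shaken culture at 30 °C for 16 h, diploids were selected and their barcode pairs sequenced. Scores were corrected for input abundance and mapped to Kd with protein pairs of known affinity run in the same pool. Mating was done three times.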

Positions count from residue 1 of the parent VH; Y52P puts P in place of Y. Affinities are written as log10 Kd with Kd in nM; a lower number is a better binder. Replicates are averaged; those with no signal do not enter the mean. An entry "ND" has no value in the source: the pair was not observed among the diploids in that replicate. This suggests poor binding but is not conclusive.

changes,"log10 Kd, replicates","log10 Kd (nM), mean",empty controls
Y52P/G55T/D106I,ND ND ND,ND,0/9
G33H/S53H/T104S,ND ND ND,ND,1/9 (3.41)
N30I/I51Y/G103F,ND 4.51 ND,4.51,4/9 (4.85)
T28L/I34W/Y52R,ND ND ND,ND,1/9 (2.66)
S53V/T58L/D106M,ND ND ND,ND,1/9 (3.77)
G26K/R56V/G61C,1.76 1.82 1.83,1.80,2/9 (3.99)
D54S/V64F/K65Y,ND ND ND,ND,1/9 (2.19)
L29W/D62E,ND 3.83 3.93,3.88,4/9 (4.94)
L29Q/G33C/I51D,ND ND ND,ND,1/9 (3.62)
T28W/Y52V,ND ND ND,ND,0/9
G33L/D54M/R57C,4.30 5.31 5.60,5.07,3/9 (4.25)
L29G/T58Q/A101H,3.59 3.26 ND,3.43,0/9
L29I/G55L/K65N,ND ND ND,ND,2/9 (4.07)
I34A/R56T/R57V,ND ND ND,ND,2/9 (4.17)
L29M/D62Y/K65W,ND ND ND,ND,0/9
D54E/A101P/A102H,ND 4.16 ND,4.16,2/9 (3.86)
G26I/L29G/S31R,ND ND ND,ND,0/9
F27K/G55W/S63I,ND ND ND,ND,0/9
Y32I/S35A/R100W,4.81 ND 4.61,4.71,4/9 (5.04)
N30H/D62R/V64L,ND ND ND,ND,1/9 (3.96)
S53N/G55S/V64L,ND ND ND,ND,0/9
V50C/G55K/G99E,5.46 5.38 ND,5.42,1/9 (5.21)
L29Q/G103I/F105H,5.46 ND ND,5.46,2/9 (3.83)
S35R/D62C/A101M,ND ND ND,ND,0/9
L29R/K65M/G99C,ND ND ND,ND,3/9 (3.97)
V50S/Y52D/F105H,ND ND ND,ND,0/9
G26I/V64N/D106R,ND 3.06 ND,3.06,2/9 (4.19)
V64I/G103T/D106K,ND ND ND,ND,0/9
G26P/R56V,1.81 1.63 1.40,1.61,2/9 (3.53)
S35F/T104K/D106G,ND ND ND,ND,1/9 (3.86)
T28G/F59P/V64K,ND ND ND,ND,0/9

For reference, 3 entries of the list once more:

changes,"log10 Kd, replicates","log10 Kd (nM), mean",empty controls
S35R/D62C/A101M,ND ND ND,ND,0/9
G26K/R56V/G61C,1.76 1.82 1.83,1.80,2/9 (3.99)
L29R/K65M/G99C,ND ND ND,ND,3/9 (3.97)

For reference, the parent read 0.65 as the reference entry and 4.11 (one replicate of three) as a member of this library. Nonspecific signal, from three strains lacking the peptide, appeared in 15% of pairings of library AAYL49, centred on 4.06 (5% of these signals below 2.83); values are not corrected for it. For each scFv, signals with the empty controls are counted beside the result, with their mean in brackets.

Source: Engelhart et al. 2022 (doi:10.1038/s41597-022-01779-4), MIT Lincoln Laboratory and A-Alpha Bio; data file from the FLAb repository.